According to US20240207285A1 (Melt Pharmaceuticals, Inc., priority 2022, published 2024):

Assay: Phase 1 relative bioavailability study: plasma pharmacokinetics of midazolam, 1-hydroxymidazolam, ketamine and norketamine
Details: Treatment C: midazolam 3.5 mg IV; mean
Description: PK analysis was performed using noncompartmental methods in Phoenix WinNonlin® (Version 8.1, Certara, L.P.) in conjunction with the internet-accessible implementation of the Pharsight® Knowledgebase Server™ (PKSO; Version 4.0.4, Certara, L.P). PKSO provides protected and structured storage, audit trails, and version control for study data, analyses, and related files, supporting 21 CFR Part 11 compliance. The analysis was performed in accordance with the Statistical Analysis Plan (Version 1.0, 5 Jan. 2021).
During the PK analysis, concentrations below the limit of quantitation (BLQ) up to the time of the first quantifiable concentration were treated as zero. Embedded (values between 2 quantifiable concentrations) and terminal BLQ concentrations were treated as “missing”. Calculation of the PK characteristics were based on actual elapsed times [h] (relative to time of dose).
All PK analyses were performed on the data from the PK Analysis Population. […] The ANOVA model included factors for sequence, subject within sequence, treatment, and period.

Structure (SMILES): Cc1ncc2n1-c1ccc(Cl)cc1C(c1ccccc1F)=NC2 [Midazolam, 8-chloro-6-(2-fluorophenyl)-1-methyl-4H-imidazo[1,5-a][1,4]benzodiazepine]
- Tlast, midazolam: 23.4 h
